Data on one compound can be found in patent US11584765B2 (priority 2017, dated 2023).

In the test the test system is C57BL/6 mice. Put plainly: Antinociception, 55° C. warm-water tail-flick test. The class given is in vivo. The note with it: s.c. administration, 55° C. water.

On to `CCOCC1(CCc2ccccc2)CCN(C2(c3ccc(C)nc3)CCCCC2)CC1`, for which the “ED50 (mg/kg) at 30 min on C57BL/6 mice in Warm-water Tail-flick Test” value is on record as “++ (++ indicates ED 50 </= 10 mg/kg)”.
